Results taken from US20090099237A1, “Methods of treating inflammatory diseases” (Roche Palo Alto LLC, priority 2007, published 2009).
pIC50: −log10 of the molar value.

Chains of the proteins cited; added tags and fusions are not shown. Lines headed by an entry give the natural chain unless they say otherwise; changes in a name come on top.
UniProt P49674: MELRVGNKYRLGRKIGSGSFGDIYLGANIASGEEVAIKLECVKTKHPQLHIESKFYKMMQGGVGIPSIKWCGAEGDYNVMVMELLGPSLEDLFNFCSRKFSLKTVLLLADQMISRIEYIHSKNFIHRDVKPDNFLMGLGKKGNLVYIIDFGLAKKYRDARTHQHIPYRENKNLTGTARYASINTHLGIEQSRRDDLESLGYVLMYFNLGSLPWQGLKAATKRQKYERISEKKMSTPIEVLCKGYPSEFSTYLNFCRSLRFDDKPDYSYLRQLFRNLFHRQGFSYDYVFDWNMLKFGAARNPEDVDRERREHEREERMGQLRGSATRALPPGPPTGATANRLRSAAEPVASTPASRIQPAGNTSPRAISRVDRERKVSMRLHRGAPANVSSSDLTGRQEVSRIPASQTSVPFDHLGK
UniProt P48730: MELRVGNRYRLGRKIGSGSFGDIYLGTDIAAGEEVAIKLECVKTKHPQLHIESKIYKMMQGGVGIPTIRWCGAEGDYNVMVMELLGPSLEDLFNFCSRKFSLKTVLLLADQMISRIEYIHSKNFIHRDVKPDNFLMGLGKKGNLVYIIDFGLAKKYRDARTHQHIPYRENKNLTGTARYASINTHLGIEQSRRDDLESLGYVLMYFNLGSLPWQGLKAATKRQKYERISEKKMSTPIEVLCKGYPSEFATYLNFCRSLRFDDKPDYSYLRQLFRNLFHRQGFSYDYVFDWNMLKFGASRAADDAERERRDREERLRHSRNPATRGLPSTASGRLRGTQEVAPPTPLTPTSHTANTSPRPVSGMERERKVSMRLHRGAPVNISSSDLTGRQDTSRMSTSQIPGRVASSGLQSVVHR

How the values were obtained:
CK1ε = molecular target: T1, CK1ε (Homo sapiens, UniProt P49674); assay: In vitro kinase assay (33P, peptide substrate); assay type: biochemical; settings: 50 μM ATP
T1 construct: purchased Invitrogen

CK1δ = molecular target: T2, CK1δ (Homo sapiens, UniProt P48730); assay: In vitro kinase assay (33P, peptide substrate); assay type: biochemical; settings: 50 μM ATP
T2 construct: purchased Upstate

**Q.** How did the pIC50 (CK1ε) turn out when `NC(=O)c1ccc(-c2nc(-c3ccc4c(c3)OCO4)c(-c3ccccn3)[nH]2)cc1` [SB431542, 4-(4-benzo-[1,3]dioxol-5-yl-5-pyridin-2-yl-1H-imidazol-2-yl)benzamide] was run?
**A.** The pIC50 was 5.39.

**Q.** What about the pIC50 (CK1δ) of the same compound?
**A.** Its pIC50 is 5.70.
